Data from patent US10239916B2, “Controlled modulation of amino acid side chain length of peptide antigens” (Board of Regents, The University of Texas System, priority 2002, dated 2019).

Tested on: E75- and S5K-CTL lines
Experiment: Fas (CD95)-mediated apoptosis / cell cycle analysis in CTL lines
Parameters: inhibition of residual Fas-apoptosis: dose or concentration left out as unconfirmed

KIFGKLAFL [S5K]
inhibition of residual Fas-apoptosis (S5K-CTL, CH11, 24 h, 5 and […] μg/ml): inhibited the residual Fas-apoptosis within 24 h
residual Fas-mediated apoptosis of F42SK-CTL (after multiple rounds of F42 stimulation): ≥ 30%
inhibition of apoptosis (subG1) of S5K-CTL vs unstimulated (peptide + CH11): 24%
inhibition of apoptosis (subG1) of S5K-CTL vs unstimulated (peptide alone): 63%
apoptotic CTL after stimulation with the inducing peptide (three days after stimulation, in the presence of CH11): 15.4%
